How the values were obtained:
[1] = dissolution of hydroxyapatite discs following fluoride treatment; details: 1000 ppm F^-, means of triplicate experiments
[2] = rat caries study; type: in vivo, Osborne-Mendel rats; details: 1000 ppm F^- topically, 21 days, severe lesions (B & C)

Question: What does the source list for sodium monofluorophosphate?
Answer: % Reduction in Dissolution ([1]; pH 4.0): 26%; % Reduction in Dissolution ([1]; pH 5.0): 23%; % Reduction in Dissolution ([1]; pH 6.0): 22%; % Reduction in Dissolution ([1]; pH 7.0): 20%; % Reduction (caries, vs water control) [2]: 29.7%; Caries/Rat ([2]; control 5.25, critical difference 0.649 at 95% confidence): 3.69

Reference: US4430324A (priority 1982, dated 1984)
